Literature values in patent publication US12648951B2, “Methods of treating castration-resistant prostate cancer with glucocorticoid receptor antagonists, androgen deprivation therapy and anti-androgen receptor therapy” (University of Chicago, priority 2012, dated 2026).

Tested on: VCaP cells which over express androgen receptors
Details: cited from earlier work

CNC(=O)c1ccc(N2C(=S)N(c3ccc(C#N)c(C(F)(F)F)c3)C(=O)C2(C)C)cc1F [MDV3100]
apoptosis: induced apoptosis
